Here are results for three molecules from the supplement of paper PMC11403291.

Chains of the proteins cited; added tags and fusions are not shown. Lines headed by an entry give the natural chain unless they say otherwise; changes in a name come on top.
UniProt P11274: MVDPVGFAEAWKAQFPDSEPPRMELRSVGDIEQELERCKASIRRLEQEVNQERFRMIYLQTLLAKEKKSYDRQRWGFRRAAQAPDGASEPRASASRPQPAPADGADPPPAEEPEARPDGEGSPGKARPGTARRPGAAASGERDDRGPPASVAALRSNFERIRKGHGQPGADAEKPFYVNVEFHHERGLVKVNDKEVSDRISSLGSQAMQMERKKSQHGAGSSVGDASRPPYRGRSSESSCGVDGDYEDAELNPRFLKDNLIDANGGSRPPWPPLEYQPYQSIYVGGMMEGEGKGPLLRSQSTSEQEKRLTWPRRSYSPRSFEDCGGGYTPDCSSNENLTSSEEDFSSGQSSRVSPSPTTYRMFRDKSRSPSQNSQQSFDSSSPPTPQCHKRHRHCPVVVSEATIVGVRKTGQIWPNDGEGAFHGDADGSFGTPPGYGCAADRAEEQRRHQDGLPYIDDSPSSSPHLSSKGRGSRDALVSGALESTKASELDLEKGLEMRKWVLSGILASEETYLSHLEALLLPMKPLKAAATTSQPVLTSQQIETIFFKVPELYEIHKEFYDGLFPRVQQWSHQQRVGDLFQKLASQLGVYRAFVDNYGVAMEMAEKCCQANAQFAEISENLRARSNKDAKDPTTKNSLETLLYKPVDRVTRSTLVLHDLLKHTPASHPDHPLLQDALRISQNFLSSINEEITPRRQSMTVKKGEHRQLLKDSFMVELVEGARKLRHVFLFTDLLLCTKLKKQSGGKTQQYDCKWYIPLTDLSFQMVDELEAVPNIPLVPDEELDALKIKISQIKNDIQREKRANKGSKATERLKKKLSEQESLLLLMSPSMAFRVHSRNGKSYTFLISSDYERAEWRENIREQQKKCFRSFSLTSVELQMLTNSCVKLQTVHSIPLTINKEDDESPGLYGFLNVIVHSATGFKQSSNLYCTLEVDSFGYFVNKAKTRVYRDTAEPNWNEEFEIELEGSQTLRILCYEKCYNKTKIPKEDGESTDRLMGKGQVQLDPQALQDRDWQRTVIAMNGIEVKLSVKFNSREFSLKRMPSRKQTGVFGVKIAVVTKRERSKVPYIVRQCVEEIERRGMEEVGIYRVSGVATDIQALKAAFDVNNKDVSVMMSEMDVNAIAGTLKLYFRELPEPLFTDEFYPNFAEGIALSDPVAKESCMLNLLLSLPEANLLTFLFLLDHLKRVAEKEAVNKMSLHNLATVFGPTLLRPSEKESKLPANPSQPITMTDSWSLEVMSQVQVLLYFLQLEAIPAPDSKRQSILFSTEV
UniProt P42685: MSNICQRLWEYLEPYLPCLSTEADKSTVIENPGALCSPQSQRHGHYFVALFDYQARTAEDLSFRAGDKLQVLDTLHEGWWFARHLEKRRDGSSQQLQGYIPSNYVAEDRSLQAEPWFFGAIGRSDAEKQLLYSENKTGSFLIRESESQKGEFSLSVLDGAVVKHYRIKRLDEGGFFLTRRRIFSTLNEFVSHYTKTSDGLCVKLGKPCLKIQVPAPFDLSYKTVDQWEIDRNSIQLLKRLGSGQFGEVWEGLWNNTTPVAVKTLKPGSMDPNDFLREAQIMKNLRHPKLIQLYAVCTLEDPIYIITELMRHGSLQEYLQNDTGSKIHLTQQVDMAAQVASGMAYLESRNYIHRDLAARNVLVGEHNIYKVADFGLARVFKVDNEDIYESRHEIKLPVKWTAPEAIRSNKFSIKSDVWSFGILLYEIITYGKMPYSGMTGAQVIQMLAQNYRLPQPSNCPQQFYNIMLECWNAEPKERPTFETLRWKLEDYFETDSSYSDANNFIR
UniProt Q16539, whole entry: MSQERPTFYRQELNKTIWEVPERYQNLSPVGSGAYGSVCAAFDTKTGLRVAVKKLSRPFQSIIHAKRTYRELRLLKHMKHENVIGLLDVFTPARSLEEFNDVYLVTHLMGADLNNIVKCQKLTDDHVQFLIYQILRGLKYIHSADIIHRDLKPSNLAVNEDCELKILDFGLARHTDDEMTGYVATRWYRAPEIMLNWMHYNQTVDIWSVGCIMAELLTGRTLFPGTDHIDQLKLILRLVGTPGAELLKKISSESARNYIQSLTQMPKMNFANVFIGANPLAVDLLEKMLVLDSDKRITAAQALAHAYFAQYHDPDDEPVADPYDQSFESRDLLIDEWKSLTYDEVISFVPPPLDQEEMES
UniProt Q16513: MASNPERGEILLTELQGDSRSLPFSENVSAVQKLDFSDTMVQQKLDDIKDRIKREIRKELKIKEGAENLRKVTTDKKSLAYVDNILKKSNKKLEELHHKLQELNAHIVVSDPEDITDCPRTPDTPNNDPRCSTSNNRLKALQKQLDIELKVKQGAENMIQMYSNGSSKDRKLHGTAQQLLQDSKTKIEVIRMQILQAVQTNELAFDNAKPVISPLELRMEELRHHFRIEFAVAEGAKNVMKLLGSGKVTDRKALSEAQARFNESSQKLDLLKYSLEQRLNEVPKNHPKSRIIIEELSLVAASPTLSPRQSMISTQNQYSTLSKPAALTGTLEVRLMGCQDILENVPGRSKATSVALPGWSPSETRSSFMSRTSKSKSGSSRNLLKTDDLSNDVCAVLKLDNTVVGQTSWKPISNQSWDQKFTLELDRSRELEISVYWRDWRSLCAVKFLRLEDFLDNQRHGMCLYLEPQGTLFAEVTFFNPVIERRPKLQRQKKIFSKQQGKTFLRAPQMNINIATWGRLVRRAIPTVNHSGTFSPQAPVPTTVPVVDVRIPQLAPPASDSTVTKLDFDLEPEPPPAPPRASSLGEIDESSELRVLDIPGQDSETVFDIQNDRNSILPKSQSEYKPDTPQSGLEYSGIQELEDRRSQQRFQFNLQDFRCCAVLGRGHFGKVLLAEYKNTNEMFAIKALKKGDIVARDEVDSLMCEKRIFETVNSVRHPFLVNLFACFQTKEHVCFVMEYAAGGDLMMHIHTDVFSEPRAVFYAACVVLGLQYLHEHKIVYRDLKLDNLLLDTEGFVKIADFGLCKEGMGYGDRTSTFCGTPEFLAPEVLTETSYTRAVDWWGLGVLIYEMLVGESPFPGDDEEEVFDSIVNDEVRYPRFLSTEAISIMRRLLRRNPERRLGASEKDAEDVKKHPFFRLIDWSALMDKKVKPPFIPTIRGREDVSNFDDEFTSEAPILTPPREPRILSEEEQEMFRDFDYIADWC
UniProt Q6P5Z2: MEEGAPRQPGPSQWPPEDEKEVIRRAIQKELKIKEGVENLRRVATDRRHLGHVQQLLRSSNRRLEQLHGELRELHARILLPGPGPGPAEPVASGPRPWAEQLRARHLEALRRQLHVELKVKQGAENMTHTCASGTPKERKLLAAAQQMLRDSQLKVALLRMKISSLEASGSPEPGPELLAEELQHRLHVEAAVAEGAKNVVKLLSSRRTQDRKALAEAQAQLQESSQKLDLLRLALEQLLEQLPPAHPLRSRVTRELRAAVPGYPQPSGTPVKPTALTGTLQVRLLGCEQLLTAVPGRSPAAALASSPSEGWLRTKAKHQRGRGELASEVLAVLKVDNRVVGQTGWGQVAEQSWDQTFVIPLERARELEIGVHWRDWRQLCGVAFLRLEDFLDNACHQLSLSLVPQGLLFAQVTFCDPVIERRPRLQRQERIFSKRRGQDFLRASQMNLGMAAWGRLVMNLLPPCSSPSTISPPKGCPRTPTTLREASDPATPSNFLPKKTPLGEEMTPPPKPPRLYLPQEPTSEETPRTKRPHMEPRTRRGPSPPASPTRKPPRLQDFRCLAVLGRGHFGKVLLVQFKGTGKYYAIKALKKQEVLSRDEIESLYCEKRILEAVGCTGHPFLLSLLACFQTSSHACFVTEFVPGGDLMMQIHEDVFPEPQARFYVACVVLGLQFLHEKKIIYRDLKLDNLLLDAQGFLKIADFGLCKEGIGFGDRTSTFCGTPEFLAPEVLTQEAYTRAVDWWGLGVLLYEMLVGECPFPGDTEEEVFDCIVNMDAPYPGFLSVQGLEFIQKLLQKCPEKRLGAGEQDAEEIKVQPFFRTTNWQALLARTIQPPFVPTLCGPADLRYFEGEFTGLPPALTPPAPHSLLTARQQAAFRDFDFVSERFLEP
UniProt P54646: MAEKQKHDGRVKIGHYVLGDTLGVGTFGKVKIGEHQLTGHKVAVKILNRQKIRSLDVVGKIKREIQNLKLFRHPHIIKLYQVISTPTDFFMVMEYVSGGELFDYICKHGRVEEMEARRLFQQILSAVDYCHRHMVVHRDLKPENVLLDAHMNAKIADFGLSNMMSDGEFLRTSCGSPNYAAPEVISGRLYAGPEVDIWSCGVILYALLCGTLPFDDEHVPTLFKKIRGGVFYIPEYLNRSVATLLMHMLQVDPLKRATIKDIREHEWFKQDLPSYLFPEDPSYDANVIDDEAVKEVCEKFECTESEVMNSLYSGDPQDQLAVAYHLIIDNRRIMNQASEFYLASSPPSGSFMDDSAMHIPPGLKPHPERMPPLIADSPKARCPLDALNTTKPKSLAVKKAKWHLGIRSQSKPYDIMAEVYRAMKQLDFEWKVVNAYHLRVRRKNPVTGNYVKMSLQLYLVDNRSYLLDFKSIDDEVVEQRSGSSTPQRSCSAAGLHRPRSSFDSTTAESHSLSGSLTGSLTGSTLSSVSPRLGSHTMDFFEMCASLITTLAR
UniProt O75582, whole entry, looked up: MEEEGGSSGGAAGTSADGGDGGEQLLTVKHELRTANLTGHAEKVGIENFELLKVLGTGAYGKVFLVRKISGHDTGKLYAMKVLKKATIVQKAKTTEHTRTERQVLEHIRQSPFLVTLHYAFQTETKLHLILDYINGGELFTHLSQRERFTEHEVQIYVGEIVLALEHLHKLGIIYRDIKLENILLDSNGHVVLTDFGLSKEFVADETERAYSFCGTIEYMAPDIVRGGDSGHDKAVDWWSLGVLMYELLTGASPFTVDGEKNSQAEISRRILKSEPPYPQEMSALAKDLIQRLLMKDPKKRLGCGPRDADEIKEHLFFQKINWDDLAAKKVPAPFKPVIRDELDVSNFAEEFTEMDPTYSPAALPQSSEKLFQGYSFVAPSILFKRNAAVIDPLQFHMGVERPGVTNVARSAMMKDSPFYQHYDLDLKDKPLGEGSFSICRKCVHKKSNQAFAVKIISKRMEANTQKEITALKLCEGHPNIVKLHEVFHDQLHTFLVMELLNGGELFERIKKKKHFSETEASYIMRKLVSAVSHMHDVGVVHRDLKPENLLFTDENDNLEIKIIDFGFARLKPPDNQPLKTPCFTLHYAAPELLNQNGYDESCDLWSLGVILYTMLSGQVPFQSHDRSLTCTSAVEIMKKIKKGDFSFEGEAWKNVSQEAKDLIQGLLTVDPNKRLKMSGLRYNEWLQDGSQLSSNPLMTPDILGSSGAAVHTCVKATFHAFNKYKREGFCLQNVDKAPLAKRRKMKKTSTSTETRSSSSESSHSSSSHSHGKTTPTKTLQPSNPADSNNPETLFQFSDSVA
UniProt Q07912: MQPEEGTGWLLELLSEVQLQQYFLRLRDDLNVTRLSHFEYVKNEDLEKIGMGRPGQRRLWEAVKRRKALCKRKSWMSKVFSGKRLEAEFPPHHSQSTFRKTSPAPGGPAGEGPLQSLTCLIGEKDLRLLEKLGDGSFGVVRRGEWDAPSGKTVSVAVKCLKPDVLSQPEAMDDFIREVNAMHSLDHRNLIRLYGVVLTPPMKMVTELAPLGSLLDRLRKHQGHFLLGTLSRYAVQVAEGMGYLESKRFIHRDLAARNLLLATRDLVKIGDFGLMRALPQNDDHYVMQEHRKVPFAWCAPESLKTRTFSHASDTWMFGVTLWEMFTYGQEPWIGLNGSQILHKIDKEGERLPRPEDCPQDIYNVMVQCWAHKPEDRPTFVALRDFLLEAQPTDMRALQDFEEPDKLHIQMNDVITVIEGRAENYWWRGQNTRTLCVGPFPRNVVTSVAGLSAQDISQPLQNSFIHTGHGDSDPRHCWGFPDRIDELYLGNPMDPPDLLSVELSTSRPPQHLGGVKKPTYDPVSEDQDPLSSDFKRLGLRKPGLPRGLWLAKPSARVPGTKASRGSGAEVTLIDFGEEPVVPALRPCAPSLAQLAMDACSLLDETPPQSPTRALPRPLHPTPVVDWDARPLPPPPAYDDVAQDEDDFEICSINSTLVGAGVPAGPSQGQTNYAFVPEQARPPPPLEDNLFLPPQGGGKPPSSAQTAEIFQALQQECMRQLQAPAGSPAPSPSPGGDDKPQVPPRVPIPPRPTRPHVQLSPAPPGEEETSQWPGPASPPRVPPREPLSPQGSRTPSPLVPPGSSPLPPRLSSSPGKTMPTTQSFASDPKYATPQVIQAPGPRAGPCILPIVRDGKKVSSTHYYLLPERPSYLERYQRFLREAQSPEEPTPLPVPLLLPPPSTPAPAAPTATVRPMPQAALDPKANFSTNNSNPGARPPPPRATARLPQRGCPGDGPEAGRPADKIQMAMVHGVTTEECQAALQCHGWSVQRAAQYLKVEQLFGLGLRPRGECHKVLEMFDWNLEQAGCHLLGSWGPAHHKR

Assay in all cases: apparent dissociation constant pKd app (kinobead competition) (-log10(M)); higher = stronger binding
Experiment [1] concerns the target BCR (UniProt P11274).
Experiment [2] deals with FRK (UniProt P42685).
The target in experiment [3] is T1, MAP3K3 (UniProt Q99759).
T1 sequence (whole entry): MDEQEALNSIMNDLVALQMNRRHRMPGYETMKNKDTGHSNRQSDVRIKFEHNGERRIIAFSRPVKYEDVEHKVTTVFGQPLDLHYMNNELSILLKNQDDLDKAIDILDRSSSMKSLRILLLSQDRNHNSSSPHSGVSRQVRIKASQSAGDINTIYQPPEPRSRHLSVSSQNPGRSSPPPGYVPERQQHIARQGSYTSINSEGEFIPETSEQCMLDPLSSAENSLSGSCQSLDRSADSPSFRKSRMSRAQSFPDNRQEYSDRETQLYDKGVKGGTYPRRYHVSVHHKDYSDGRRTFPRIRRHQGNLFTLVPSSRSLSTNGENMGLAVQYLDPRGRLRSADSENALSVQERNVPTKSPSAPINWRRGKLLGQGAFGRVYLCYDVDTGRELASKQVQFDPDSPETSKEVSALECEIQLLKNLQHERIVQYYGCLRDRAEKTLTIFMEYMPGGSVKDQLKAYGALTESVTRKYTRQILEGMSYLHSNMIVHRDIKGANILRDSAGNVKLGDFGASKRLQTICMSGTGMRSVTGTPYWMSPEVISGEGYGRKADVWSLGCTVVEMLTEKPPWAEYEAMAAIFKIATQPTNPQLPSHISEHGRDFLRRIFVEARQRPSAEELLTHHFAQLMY

The target of experiment [4] is MAPK14 (UniProt Q16539).
The target of experiment [5] is T2, NEK2 (UniProt P51955).
T2 sequence (whole entry): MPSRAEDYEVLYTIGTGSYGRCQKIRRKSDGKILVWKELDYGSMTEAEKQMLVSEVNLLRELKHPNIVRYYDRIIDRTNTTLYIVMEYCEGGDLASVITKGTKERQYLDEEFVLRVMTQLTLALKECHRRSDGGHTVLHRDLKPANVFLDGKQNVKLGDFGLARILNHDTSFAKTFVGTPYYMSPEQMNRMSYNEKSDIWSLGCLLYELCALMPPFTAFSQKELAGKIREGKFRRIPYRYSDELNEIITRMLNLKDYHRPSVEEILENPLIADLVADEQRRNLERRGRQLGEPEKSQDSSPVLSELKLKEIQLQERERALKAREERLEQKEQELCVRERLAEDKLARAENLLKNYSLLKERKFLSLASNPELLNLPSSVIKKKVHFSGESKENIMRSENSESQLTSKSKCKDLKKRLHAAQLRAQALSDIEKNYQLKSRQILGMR

Experiment [6] concerns the target T3, NEK6 (UniProt Q9HC98).
T3 sequence (whole entry): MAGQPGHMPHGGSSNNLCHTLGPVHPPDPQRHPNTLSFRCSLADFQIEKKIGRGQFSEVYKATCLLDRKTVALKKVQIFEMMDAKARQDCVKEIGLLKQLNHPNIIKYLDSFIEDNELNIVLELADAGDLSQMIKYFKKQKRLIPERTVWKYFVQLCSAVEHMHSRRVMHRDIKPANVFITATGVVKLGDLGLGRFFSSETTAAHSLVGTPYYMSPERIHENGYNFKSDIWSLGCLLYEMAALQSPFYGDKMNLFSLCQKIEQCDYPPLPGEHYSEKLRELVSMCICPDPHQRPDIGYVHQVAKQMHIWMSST

The target of experiment [7] is PKN2 (UniProt Q16513).
Experiment [8] concerns the target PKN3 (UniProt Q6P5Z2).
Experiment [9] deals with PRKAA2 (UniProt P54646).
Experiment [10] deals with T4, PRKG1 (UniProt Q13976).
T4 sequence (whole entry): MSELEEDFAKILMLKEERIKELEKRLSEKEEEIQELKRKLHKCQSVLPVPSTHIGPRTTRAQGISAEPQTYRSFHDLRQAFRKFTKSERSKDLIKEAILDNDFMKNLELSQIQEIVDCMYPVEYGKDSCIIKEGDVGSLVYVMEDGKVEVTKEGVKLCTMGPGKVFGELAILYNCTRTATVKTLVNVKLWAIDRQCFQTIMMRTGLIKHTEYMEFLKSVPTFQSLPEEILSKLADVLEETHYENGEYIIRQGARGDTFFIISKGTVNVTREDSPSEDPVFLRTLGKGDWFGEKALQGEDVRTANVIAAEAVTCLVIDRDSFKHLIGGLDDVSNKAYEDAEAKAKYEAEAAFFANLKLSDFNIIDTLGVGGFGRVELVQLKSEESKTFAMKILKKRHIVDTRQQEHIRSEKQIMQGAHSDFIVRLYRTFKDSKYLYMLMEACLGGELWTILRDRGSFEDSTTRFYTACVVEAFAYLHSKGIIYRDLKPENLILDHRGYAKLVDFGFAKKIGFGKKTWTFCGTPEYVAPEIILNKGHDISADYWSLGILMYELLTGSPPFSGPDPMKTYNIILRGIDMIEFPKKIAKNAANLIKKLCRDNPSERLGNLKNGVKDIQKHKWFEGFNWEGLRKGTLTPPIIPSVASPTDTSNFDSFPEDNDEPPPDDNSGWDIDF

Experiment [11] has as its target RPS6KA1 (UniProt Q15418).
For experiment [12], the target named is RPS6KA5 (UniProt O75582).
Experiment [13] concerns the target TNK2 (UniProt Q07912).

SMILES strings stand for the structures.

For `NC(=O)c1cccc2cn(-c3ccc([C@@H]4CCCNC4)cc3)nc12` [Niraparib], the “apparent dissociation constant pKd app (-log10)” value in [1] is under 4.8; in experiment [2], under 4.7; in experiment [3], under 4.6; in [4] it was under 4.7; in experiment [5] it was under 4.7; in experiment [6], under 4.6. The “apparent dissociation constant pKd app (-log10)” value in experiment [7] was under 4.5; in [8] it was under 4.6; in experiment [9], under 4.7; in [10], under 4.6; in [11] it was under 4.5; in experiment [12], under 4.5. The “apparent dissociation constant pKd app (-log10)” value in experiment [13] is under 4.7.

On to `Cn1ncnc1[C@H]1c2n[nH]c(=O)c3cc(F)cc(c23)N[C@@H]1c1ccc(F)cc1` [Talazoparib], for which the “apparent dissociation constant pKd app (-log10)” value was under 4.8 in experiment [1]; under 4.7 in [2]; under 4.6 in experiment [3]; under 4.7 in experiment [4]; under 4.7 in experiment [5]; under 4.6 in experiment [6]. The “apparent dissociation constant pKd app (-log10)” value in [7] is under 4.5; in experiment [8] it was under 4.6; in [9] it was under 4.7; in experiment [10] it was under 4.6; in experiment [11] it was under 4.5; in experiment [12] it was under 4.5. For the same molecule, the “apparent dissociation constant pKd app (-log10)” value in [13] is under 4.7.

As for `O=C(c1cc(Cc2n[nH]c(=O)c3ccccc23)ccc1F)N1CCN(C(=O)C2CC2)CC1` [Olaparib], the “apparent dissociation constant pKd app (-log10)” value was under 4.8 in experiment [1]; under 4.7 in experiment [2]; under 4.6 in experiment [3]; under 4.7 in experiment [4]; under 4.7 in [5]; under 4.6 in experiment [6]. The “apparent dissociation constant pKd app (-log10)” value is under 4.5 in [7]; under 4.6 in [8]; under 4.7 in experiment [9]; under 4.6 in experiment [10]; under 4.5 in experiment [11]; under 4.5 in experiment [12]. The “apparent dissociation constant pKd app (-log10)” value in experiment [13] is under 4.7.
